# From article PMC12592420, “A mismatch in enzyme-redox partnerships underlies divergent cytochrome P450 activities between human hepatocytes and microsomes” (Communications Biology, 2025)
# Key:
# [1] = CLint in NADPH-supplemented human liver microsomes; conditions: Fig. 4a,d
# rat hepatocytes = experiment: Free fraction in rat hepatocytes as surrogate for HH, equilibrium dialysis; conditions: fraction unbound, measured or estimated by in silico models of Fuinc
# [2] = Free fraction in HLM incubation, equilibrium dialysis; format: in vitro ADME, human; conditions: fraction unbound, measured or estimated by in silico models of Fuinc
substance,measurement,setting,value
AZ20,Caco-2 Papp,Caco-2 cells,61.097 10-6 cm/s
same,HLM_NADPH CLint,"[1]; 1 µM, single determination",22.5 µL/min/mg
same,"NADPH_HLM_scaled_CLint,u",[1],31.9737 mL/min/kg
same,"HH_scaled_CLint,u",human hepatocytes (HH),29.9482 mL/min/kg
same,HH_CLint,human hepatocytes (HH); human,7.903 uL/min/106 cells
same,fu_ratHH,rat hepatocytes,0.665
same,fu_HLM,[2],0.665
